Source: paper PMC5238559, “Biomimetic synthesis and HPLC–ECD analysis of the isomers of dracocephins A and B” (Beilstein Journal of Organic Chemistry, 2016)
Where two headings read alike, the source gives them in different places.

How the values were obtained:
[1] = pKa determination by aqueous titrations; type: physicochemical; conditions: phenolic hydroxy group
Description: (§1) n-octanol. From the n-octanol containing titrations the poKa (the apparent ionization constant in the presence of n-octanol) and then logP values were estimated and refined by a weighted non-linear least-squares procedure, where the aqueous pKa values (taken from aqueous titrations) were used as unrefined contributions. For each compound a minimum of three to six titrations at different phase volume ratios were measured, and the respective average logP values were calculated. logD values were also calculated by logP and pKa values using the Henderson– Hasselbalch equation. The relevant relationships between logP, pKa, and poKa, for mono- and multiprotic substances, including cases of ion-pair formation, have been described in detail earlier. […]

[2] = logP determination by titrations in the presence of n-octanol; logD calculated from logP and pKa; type: physicochemical
Description: as §1

[3] = type: in vitro ADME; conditions: pH 7.4, 37 °C, 4 h; for PAMPA-BBB permeability classification: class in words
Description: Physicochemical characterization of dracocephins A and B was also carried out. The lipophilicity of neutral species of naringenin and dracocephins A and B are 3.39, 2.52 and 2.39, respectively. Similarly to this lipophilicity trend, the TPSA value of (±)-naringenin is lower than dracocephins A and B, however, there is no difference between the calculated TPSA values of 2a–d and 3a–d. […] Among these proton-dissociation constants, the lowest acidic pKa values are predominant in physiological environment, which is also indicated by the difference of log D values between pH 7.4 and pH 6.5. The blood–brain barrier (BBB) specific penetration of dracocephins isomers has also been studied by the PAMPA (parallel artificial membrane permeability assay)-BBB model system, which indicates passive diffusion of test compounds across the brain capillary endothelium. […]
n-octanol. From the n-octanol containing titrations the poKa (the apparent ionization constant in the presence of n-octanol) and then logP values were estimated and refined by a weighted non-linear least-squares procedure, where the aqueous pKa values (taken from aqueous titrations) were used as unrefined contributions. For each compound a minimum of three to six titrations at different phase volume ratios were measured, and the respective average logP values were calculated. logD values were also calculated by logP and pKa values using the Henderson– Hasselbalch equation. The relevant relationships between logP, pKa, and poKa, for mono- and multiprotic substances, including cases of ion-pair formation, have been described in detail earlier.
Antioxidant activity: The radical scavenging capacity of dracocephins A and B were tested in the microplate format of the 2,2-diphenyl-1-picrylhydrazyl (DPPH) assay. […]
for 4 h. After the incubation, PAMPA sandwich plates are separated and compound concentrations in donor and acceptor solutions are determined by HPLC-DAD. […]
Cytotoxicity on SH-SY5Y cells: Cytotoxicity on SH-SY5Y cells was measured in an analogous manner as described in the literature. […]

naringenin [(±)-1, reference compound]
pKa (first, lowest acidic) ([1]; first value in cell): 6.91 ± 0.06
pKa (second) ([1]; second value in cell): 9.20 ± 0.08
pKa (third) ([1]; third value in cell): 11.85 ± 0.06
log P ([2]; n-octanol/water, lipophilicity of neutral species): 3.39 ± 0.01
log D6.5 ([2]; pH 6.5, calculated from logP and pKa by Henderson–Hasselbalch equation): 3.25
log D7.4 ([2]; pH 7.4, calculated from logP and pKa by Henderson–Hasselbalch equation): 2.80
PAMPA-BBB Pe [3]: 8.8 ± 0.6 10^–6 cm/s
PAMPA-BBB permeability classification [3]: medium
PAMPA-BBB permeability classification ([3]; listed as naringenin): medium penetration characteristic
